These results are taken from patent US20240254224A1 (UCB, published 2024).

Chains of the proteins cited; added tags and fusions are not shown. A line that says so, or that is headed by a name, gives the form on record, which may keep a tag or linker. Residues count along the entry.
UniProt Q9NP99, 21-205 limits assumed: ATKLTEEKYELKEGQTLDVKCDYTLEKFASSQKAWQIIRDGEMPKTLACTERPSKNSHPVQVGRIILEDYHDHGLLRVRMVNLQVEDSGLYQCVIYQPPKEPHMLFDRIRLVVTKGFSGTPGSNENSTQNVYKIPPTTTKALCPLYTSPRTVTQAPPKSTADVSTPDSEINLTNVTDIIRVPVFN
UniProt Q9NP99, 21-234: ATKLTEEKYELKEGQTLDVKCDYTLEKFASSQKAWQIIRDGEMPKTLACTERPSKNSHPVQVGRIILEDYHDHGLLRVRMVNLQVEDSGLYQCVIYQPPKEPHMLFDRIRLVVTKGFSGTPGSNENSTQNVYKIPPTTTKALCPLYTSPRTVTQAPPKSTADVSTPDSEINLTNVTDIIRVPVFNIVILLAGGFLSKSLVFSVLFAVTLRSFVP
Human TREM1 extracellular domain CID101904 (hTREM1_1-200-Avi-Tev-HKH), one chain, as listed by the source: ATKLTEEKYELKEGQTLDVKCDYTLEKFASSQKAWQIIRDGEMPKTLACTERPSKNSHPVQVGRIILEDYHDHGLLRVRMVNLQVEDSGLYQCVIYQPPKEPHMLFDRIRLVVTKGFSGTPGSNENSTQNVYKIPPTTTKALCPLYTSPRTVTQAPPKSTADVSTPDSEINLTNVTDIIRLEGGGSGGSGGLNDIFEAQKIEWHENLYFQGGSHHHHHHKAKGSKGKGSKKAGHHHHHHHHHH

Positions count from the first letter of the chain named. Where “and” joins values, the source holds several entries; their conditions need not be identical. Equal entries are not always repeated. Where two headings read alike, the source gives them in different places.

Assay [1] concerns the target T1, human TREM1 (SPR of the humanised grafts, construct not stated) (human, UniProt Q9NP99 21-205, limits assumed). Briefly: SPR, human TREM1. Background: In SPR one partner is held on a chip, and binding of the other changes the refractive index at the surface.
For assay [2], the target named is T2, human TREM1 on cells (human, UniProt Q9NP99 21-234). Briefly: cell-based or functional assay.
Assay [3] addresses T1, human TREM1 (SPR of the humanised …). Briefly: SPR, human TREM1. The source holds these as a separate data set.
For assay [4], the target named is T2, human TREM1 on cells. Briefly: LigandTracer, AF647-labelled antibody on HEK293 cells expressing human TREM1, 25 C, 1:1 model, N = 3.
Assay [5] deals with T2, human TREM1 on cells. The assay can be described thus: cell-based or functional assay. This is another data set of the same source.
Assay [6] concerns the target T3, Human TREM1 extracellular domain CID101904 (hTREM1_1-200-Avi-Tev-HKH) (human).
T3 construct: also called Human TREM1 ECD (in house, His tagged); TREM1 ECD analyte
The assay can be described thus: SPR (Biacore T200), 25 C, species panel, antibody captured by anti-human Fc, 1:1 model, n=1. The method, then: The species tested were human, cynomolgus, rhesus, marmoset, rat, mouse, dog and pig.
TREM1 ECD analyte (in house, His tagged) was injected at 3-fold serial dilutions in HBS-EP+ running buffer (GE Healthcare), top concentrations are shown in Table 15, and three-fold serial dilutions were performed to a bottom concentration of 2 nM. Buffer blank injections were included to subtract instrument noise and drift.

For assay [7], the target named is T3, Human TREM1 extracellular domain …. Briefly: SPR (Biacore T200 and 8k), 25 C, antibody captured by anti-human Fc, TREM1 ECD as analyte, 1:1 model, n=2. An excerpt:
Buffer blank injections were included to subtract instrument noise and drift.

In assay [8] the target is T2, human TREM1 on cells. Briefly: LigandTracer, HEK293 cells expressing human TREM1, 1:1 model, average of five.
Assay [9] deals with T2, human TREM1 on cells. Briefly: cell-based or functional assay. This is another data set of the same source.
The target of assay [10] is T2, human TREM1 on cells. Briefly: cell-based or functional assay. This is another data set of the same source.
The target of assay [11] is T1, human TREM1 (SPR of the humanised …). Briefly: SPR, human TREM1, humanised IgG4P graft.
Assay [12] shares this target. Briefly: SPR, human TREM1, IgG4P.
Assay [13] concerns the target T2, human TREM1 on cells. The assay can be described thus: LigandTracer, AF647-labelled antibody on HEK293 cells expressing human TREM1, 25 C, 1:1 model, N = 2.
Assay [14] deals with T2, human TREM1 on cells. The assay can be described thus: LigandTracer, AF647-labelled antibody on HEK293 cells expressing human TREM1, 25 C, 1:1 model, N = 5.
Assay [15] has as its target T2, human TREM1 on cells. The assay can be described thus: LigandTracer, HEK293 cells expressing human TREM1, 1:1 model, geometric mean of five.
Assay [16] deals with T2, human TREM1 on cells. Briefly: LigandTracer, AF647-labelled antibody on HEK293 cells expressing human TREM1, 25 C, 1:1 model, N = 1.
The target of assay [17] is T2, human TREM1 on cells. The assay can be described thus: cell-based or functional assay. This is another data set of the same source.
The target in assay [18] is T2, human TREM1 on cells. Briefly: LigandTracer, AF647-labelled antibody on HEK293 cells expressing human TREM1, 25 C, 1:1 model, N = 4.
Assay [19] addresses T1, human TREM1 (SPR of the humanised …). The assay can be described thus: SPR, human TREM1, IgG4P charge mutant.

B1: Rabbit Ab 12172 (antibody, V domains shown)
VH: QSLEESGGRLVTPGTPLTLTCTASGFSLSSYAMTWVRQAPGKGLEWIGIIYAGGSPSYASWAKGRFTISKTSTTVDLKMTSPTTEDTATYFCARGTGDTVYTYFNIWGPGTLVTVSS
VL: AVVLTQTASPVSAPVGGTVTIKCQASQNIGSDLAWYQQEPGQPPKLLIYKAATLASGVPSRFKGSGSGTEFTLTISGVQCEDGATYYCQQYYYGSAGADTDTFGGGTEVVVK
In the case of B1, the Kd (in general, the constant that tells how readily two partners part at equilibrium) in assay [1] is 0.57 nM; in assay [3], 0.519 nM and 0.461 nM. Moreover, the “Geomean IC50, inhibition of PGLYRP1/PGN-induced NF-κB luciferase in THP1 TREM1/DAP12 reporter cells” value with human TREM1 on cells [2] was found to be 0.084 nM.

B2: 12172 gL2gH11 hIgG4P (antibody)
heavy: not shown
light: DIQLTQSPSFLSASVGDRVTITCQASQNIGSDLAWYQQKPGKAPKLLIYKAATLASGVPSRFSGSGSGTEFTLTISSLQPEDFATYYCQQYYYGSAGADTDTFGGGTKVEIKRTVAAPSVFIFPPSDEQLKSGTASVVCLLNNFYPREAKVQWKVDNALQSGNSQESVTEQDSKDSTYSLSSTLTLSKADYEKHKVYACEVTHQGLSSPVTKSFNRGEC
notes: Humanised IgG4P, human kappa; also called 12172gL2gH11 IgG4P
Turning to B2, in the assay with human TREM1 on cells [4], binding was characterised by a dissociation constant (Kd) of 0.0152 nM; the off-rate (koff) (as a rule, the first-order rate constant of dissociation) is 3.71e-06 s⁻¹; the kon (as a rule, the rate constant with which the complex forms) came out at 244000 M⁻¹ s⁻¹. In addition, in the assay with human TREM1 on cells [5], the “percentage inhibition of CCL-3 release, activated primary human monocytes, antibody 1 nM” value was determined as 57%; the “percentage inhibition of CCL-20 release, activated primary human monocytes, antibody 1 nM” value came to 69%; the “percentage inhibition of CXCL-9 release, activated primary human monocytes, antibody 1 nM” value came to 77%; the “percentage inhibition of G-CSF release, activated primary human monocytes, antibody 1 nM” value was 92%. Besides, in the assay with human TREM1 on cells [5], the “percentage inhibition of GM-CSF release, activated primary human monocytes, antibody 1 nM” value is 91%; the “percentage inhibition of IFN-γ release, activated primary human monocytes, antibody 1 nM” value was found to be 59%; the “percentage inhibition of IL-1α release, activated primary human monocytes, antibody 1 nM” value came out at 110%; the “percentage inhibition of IL-1β release, activated primary human monocytes, antibody 1 nM” value stood at 98%. Further, in the assay with human TREM1 on cells [5], the “percentage inhibition of IL-6 release, activated primary human monocytes, antibody 1 nM” value is 64%; the “percentage inhibition of IL-10 release, activated primary human monocytes, antibody 1 nM” value was determined as 86%; the “percentage inhibition of IL-12p40 release, activated primary human monocytes, antibody 1 nM” value worked out at 96%; the “percentage inhibition of IL-15 release, activated primary human monocytes, antibody 1 nM” value came to 78%. In the assay with human TREM1 on cells [5], the “percentage inhibition of IL-18 release, activated primary human monocytes, antibody 1 nM” value is 87%; the “percentage inhibition of IL-27 release, activated primary human monocytes, antibody 1 nM” value was found to be 81%; the “percentage inhibition of TNF-α release, activated primary human monocytes, antibody 1 nM” value worked out at 94%; the “percentage inhibition of TNF-β release, activated primary human monocytes, antibody 1 nM” value stood at 65%. Besides, in [6], binding was put at a Kd of 0.54 nM, the koff was 9.1e-05 s⁻¹ and the on-rate (kon) turned out to be 170000 M⁻¹ s⁻¹. In assay [7], this molecule registered a Kd of 0.52 nM, a koff of 9.2e-05 s⁻¹ and a kon of 180000 M⁻¹ s⁻¹. In the assay with human TREM1 on cells [8], this molecule yielded a Kd of 0.0171 nM, a koff of 5.65e-06 s⁻¹ and a kon of 326000 M⁻¹ s⁻¹. In addition, the “Geomean IC50, inhibition of PGLYRP1/PGN-induced NF-κB luciferase in THP1 TREM1/DAP12 reporter cells” value with human TREM1 on cells [2] is 0.064 nM. Also, the “Geomean IC50, inhibition of PGLYRP1/PGN-induced NF-κB luciferase in THP1 TREM1/DAP12 reporter cells” value with human TREM1 on cells [9] was 0.064 nM. In addition, in the assay with human TREM1 on cells [10], the “Geo IC50, IL-1β release from PGN-BS/PGLYRP1-activated primary human monocytes (n = 2)” value was determined as 0.005 nM; the “Geo IC50, IL-6 release from PGN-BS/PGLYRP1-activated primary human monocytes (n = 4)” value is 0.027 nM; the “Geo IC50, TNF-α release from PGN-BS/PGLYRP1-activated primary human monocytes (n = 4)” value was 0.015 nM. This molecule gave a Kd in assay [11] of 0.453 nM. Further, the Kd in assay [12] amounted to 0.445 nM. In addition, in the assay with human TREM1 on cells [13], the Kd was 0.025 nM, the koff was determined as 8.89e-06 s⁻¹ and the kon is 356000 M⁻¹ s⁻¹. In the assay with human TREM1 on cells [14], the affinity, expressed as Kd, was 0.0133 nM; the koff turned out to be 5.88e-06 s⁻¹; the kon is 443000 M⁻¹ s⁻¹. In the assay with human TREM1 on cells [15], the Kd amounted to 0.0165 nM, the koff came out at 5.23e-06 s⁻¹ and the on-rate (kon) stood at 317000 M⁻¹ s⁻¹. In the assay with human TREM1 on cells [16], this molecule registered a Kd of 0.0194 nM, a koff of 6.8e-06 s⁻¹ and a kon of 350000 M⁻¹ s⁻¹. In the assay with human TREM1 on cells [17], the “pSYK inhibition Emax, hTREM1/hDAP-12 Flp-In 293 cells stimulated with PGN-EC/PGLYRP1” value was 63% and the “pSYK inhibition IC50, hTREM1/hDAP-12 Flp-In 293 cells stimulated with PGN-EC/PGLYRP1” value came to 1020 pM. Besides, in the assay with human TREM1 on cells [18], the affinity, expressed as Kd, was 0.0125 nM; the koff stood at 2.97e-06 s⁻¹; the kon worked out at 238000 M⁻¹ s⁻¹.

B3: 12172gL9gH49 (antibody, human IgG4 S228P, kappa, V domains shown)
VH: EVQLVESGGGLVQPGGSLRLSCAASGFSLSSYAMTWVRQAPGKGLEWIGIIYAGGSPSYASWAKGRFTISKDNSENTLYLQMNSLRAEDTAVYYCARGTGDTVYTYFNIWGQGTLVTVSS
VL: DIQLTQSPSFLSASVGDSVTITCQASQNIGSDLAWYQQKPGKAPKLLIYKAATLASGVPSRFSGSGSGTEFTLTISSLQPEDFATYYCQQYYYGSAGADTDTFGGGTKVEIKR
Molecule B3 registered a Kd in [19] of 0.394 nM.

B4: 12172gL9gH48 (antibody, human IgG4 S228P, kappa, V domains shown)
VH: B3 VH with E75Q
VL: B3 VL
In assay [19], B4 displayed a Kd of 0.37 nM.

B5: 12172gL9gH11 (antibody, human IgG4 S228P, kappa)
heavy: not shown
light: B2 light with R18S
In the case of B5, the affinity in assay [19], expressed as Kd, was 0.55 nM.

B6: 12172gL11gH11 (antibody, human IgG4 S228P, kappa, V domains shown)
VH: B3 VH with E75K
VL: B3 VL with S18R, K50S
Turning to B6, in assay [19], binding was characterised by a dissociation constant (Kd) of 0.55 nM.
